pIC50: −log10 of the molar value.
Columns and labels:
RAD51 = RAD51 (Homo sapiens, UniProt Q06609); assay: D-loop assay for RAD51; format: biochemical; details: for Joint Molecules (%): compounds 100 μM
RecA = RecA (Escherichia coli, UniProt P0A7G6); details: read-out: IC50 (RecA); RecA 1 μM, ssDNA 3 μM, dsDNA 50 μM
RAD54 = RAD54 (Homo sapiens, UniProt Q92698); assay: DNA branch migration assay for RAD54; details: 0 to 200 μM

Chains of the proteins cited; added tags and fusions are not shown.
UniProt Q06609, whole entry: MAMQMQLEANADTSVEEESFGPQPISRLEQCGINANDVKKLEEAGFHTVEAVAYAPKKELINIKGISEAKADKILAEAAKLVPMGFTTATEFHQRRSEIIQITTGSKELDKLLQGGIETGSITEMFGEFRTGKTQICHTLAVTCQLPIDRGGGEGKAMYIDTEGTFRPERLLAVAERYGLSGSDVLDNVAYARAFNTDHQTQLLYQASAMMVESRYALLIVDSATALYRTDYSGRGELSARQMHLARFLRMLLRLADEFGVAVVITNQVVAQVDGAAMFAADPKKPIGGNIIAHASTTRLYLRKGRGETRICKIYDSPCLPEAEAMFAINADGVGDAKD
UniProt P0A7G6, whole entry: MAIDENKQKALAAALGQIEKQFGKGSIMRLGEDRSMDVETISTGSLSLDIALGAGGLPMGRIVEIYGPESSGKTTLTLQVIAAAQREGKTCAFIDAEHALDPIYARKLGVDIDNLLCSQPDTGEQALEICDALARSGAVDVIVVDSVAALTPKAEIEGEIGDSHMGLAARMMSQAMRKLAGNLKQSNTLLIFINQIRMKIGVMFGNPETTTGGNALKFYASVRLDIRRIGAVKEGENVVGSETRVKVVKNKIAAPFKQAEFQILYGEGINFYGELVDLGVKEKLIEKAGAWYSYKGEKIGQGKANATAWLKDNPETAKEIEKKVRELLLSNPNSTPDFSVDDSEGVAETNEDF
UniProt Q92698, whole entry: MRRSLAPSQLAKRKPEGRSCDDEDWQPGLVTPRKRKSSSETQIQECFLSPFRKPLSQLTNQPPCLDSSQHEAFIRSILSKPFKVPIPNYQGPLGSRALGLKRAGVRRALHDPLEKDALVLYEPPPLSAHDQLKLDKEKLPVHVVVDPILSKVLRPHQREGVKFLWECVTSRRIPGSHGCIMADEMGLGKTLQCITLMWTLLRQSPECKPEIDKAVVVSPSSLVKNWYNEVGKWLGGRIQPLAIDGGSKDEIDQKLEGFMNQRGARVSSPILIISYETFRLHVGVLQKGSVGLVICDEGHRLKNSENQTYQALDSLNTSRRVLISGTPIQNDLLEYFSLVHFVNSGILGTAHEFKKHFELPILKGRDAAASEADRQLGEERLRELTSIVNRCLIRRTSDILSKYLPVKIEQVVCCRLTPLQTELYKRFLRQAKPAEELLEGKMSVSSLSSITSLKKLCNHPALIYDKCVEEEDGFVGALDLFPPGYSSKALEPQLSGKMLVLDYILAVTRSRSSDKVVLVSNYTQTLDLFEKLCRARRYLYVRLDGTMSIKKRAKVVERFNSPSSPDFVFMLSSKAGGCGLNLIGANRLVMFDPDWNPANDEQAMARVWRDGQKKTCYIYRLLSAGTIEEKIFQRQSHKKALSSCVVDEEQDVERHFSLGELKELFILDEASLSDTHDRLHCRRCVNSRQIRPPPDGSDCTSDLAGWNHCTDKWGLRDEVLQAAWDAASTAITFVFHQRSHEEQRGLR

Structure (SMILES)	IC50 lower for RAD51 than for RecA (RAD51; D-loop assay)	Joint Molecules (%) (RAD51; RAD51 1 μM)	pIC50 (RecA)	IC50 (RecA)/IC50 (RAD51) (RAD51; D-loop assay)	inhibition of RAD51 versus RecA, in words (RAD51; D-loop assay)	pIC50 (RAD51; read-out: IC50 (RAD51), RAD51 1 μM, ssDNA 3 μM, dsDNA 50 μM, compound added after filament formation)	inhibition of RAD54 branch migration, in words (RAD54)
Cc1cc(O)c(C=O)c2c1C(=O)Oc1c(CO)c(O)c3c(c1O2)C(O)OC3=O (stereo not drawn)	5.6 fold	5.4 ± 1.9%	3.73	–	–	–	–
COc1cc(C)c2c(c1C=O)Oc1c(c(C)c(O)c3c1C(O)OC3=O)OC2=O (stereo not drawn)	–	6.7 ± 2.5%	4.45	1.3	nearly equal efficiency	4.58	not to significantly inhibit
